Rango release inh = qHTS Assay for Inhibitors of RanGTP induced Rango (Ran-regulated importin-beta cargo) - Importin beta complex dissociation; Biochemical FRET Rango-importin beta, RanGTP-induced dissociation; actives 0.071% (n = 340,000); Potency, µM (highest dose often 46.1 µM); Snurportin-1 (Homo sapiens) + GTP-binding nuclear protein Ran (Homo sapiens) + Importin …; calls by dose curve; note: nearly all actives have a fitted effect of over 45% in size
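FRET read at 45 min, room temperature: inhibitors block the CFP/YFP signal rise when RanGTP (0.6 uM Ran, 2 mM GTP, 0.2 uM RCC1) frees Rango (0.1 uM) from importin beta (0.25 uM). Pre-read after 5 min compound exposure flags interference.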
Tb PFK block = qHTS Assay to Find Inhibitors of T. brucei phosphofructokinase; ATP-dependent 6-phosphofructokinase (Trypanosoma brucei brucei), O15648; T. brucei PFK, ADP-Glo luminescence; Potency, µM (titrated, usually from 57.5 µM), most hits filed as inhibitors; actives 0.17% (n = 330,000); AID 485367, 2010; note: nearly all actives have a fitted effect of over 60% in size
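1.25 nM PFK with 0.5 mM F6P and 0.1 mM ATP in 0.1 M TEA pH 8.0, 5 mM MgCl2, incubated 45 min at room temperature; ADP measured by ADP-Glo luminescence; compounds titrated up to 57 uM.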
PKM2 activator = qHTS Assay for Activators of Human Muscle isoform 2 Pyruvate Kinase | Pyruvate kinase PKM (Homo sapiens), P14618 | purified PKM2, Kinase-Glo ATP luminescence, activation; response scale: 0% is enzyme alone, no compound | Potency, µM (titrated, usually from 57.5 µM), usual class: activators | actives 0.34% (n = 260,000) | AID 1631, 2009; note: nearly all actives have a fitted effect of over 55% in size
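hPK-M2, >95% pure; 0.1 mM ADP / 0.5 mM PEP final; imidazole pH7.2 buffer w/ 7 mM MgCl2, 50 mM KCl; 1 h RT; Kinase-Glo lum. Intermediate enzyme activity for dual inhibitor/activator qHTS.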
ELG1 DNA repair = qHTS screen for small molecules that inhibit ELG1-dependent DNA repair in human embryonic kidney (HEK293T) cells expressing luciferase-tagged ELG1. HEK293T ELG1-luciferase reporter, luminescence, 16 h; DNA damage induced by 5-fluorouridine. Potency, µM (series often up to 46.1 µM), most hits filed as inhibitors. actives 2.3% (n = 330,000); note: nearly all actives have a fitted effect of over 55% in size
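Luminescence from the luciferase reporter, measured 30 min after ONE-Glo reagent at room temperature, was the read-out. Beforehand, 2,000 cells per well were exposed for 16 hr at 37 °C to 5-fluorouridine together with compound or vehicle.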
Rango-impB inh = qHTS Assay for Inhibitors of Rango (Ran-regulated importin-beta cargo) - Importin beta complex formation. Rango CFP/YFP FRET sensor + importin beta, 45 min. Potency, µM (highest dose often 92.2 µM). actives 0.031% (n = 340,000). AID 540263, 2011; calls by dose curve; note: nearly all actives have a fitted effect of over 15% in size
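FRET biosensor Rango (snurportin 1 IBB between N-terminal EYFP and C-terminal Cerulean), 50 nM in PBS/1 mM DTT/0.02% Tween-20/0.1% BSA, preincubated 5 min RT with compound; 0.125 microM importin beta added, 45 min RT, CFP/YFP FRET ratio read.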
Tb PGK inh = qHTS Assay to Find Inhibitors of Phosphoglycerate Kinase. Potency, µM (highest dose often 57.5 µM), hits mostly inhibitors. actives 0.043% (n = 380,000). PGK/GAPDH coupled, Kinase-Glo luminescence, 60 min; note: nearly all actives have a fitted effect of over 60% in size
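Recombinant glycosomal PGK reaction used 1,3-bisphosphoglycerate generated in-well by GAPDH (100nM final) in 100mM TEA pH 7.6, 5mM MgCl2, 0.01% Tween-20. After 60 minutes at room temperature, ATP was read by Kinase-Glo Plus luminescence end-point.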
Numbers stand for hits; i = inactive; ? = inconclusive; nt = no result given; [ ] = another dose, or the depositor's remark. Hits are enriched below; roughly 2.4% of the tested compounds scored in any of these assays. Unless noted, calls come from the whole dose curve; as a rule, active = well fitted curve in the direction sought with a large enough effect; inconclusive = small, poorly fitted or top-dose-only effect, or another doubt; inactive = no such curve, though single readings can be large; an effect the other way counts as inactive or inconclusive.

By UniProt entry, the sequences of proteins in these tests, tags left out.
Pyruvate kinase PKM (Homo sapiens), P14618, UniProt P14618, whole entry, looked up: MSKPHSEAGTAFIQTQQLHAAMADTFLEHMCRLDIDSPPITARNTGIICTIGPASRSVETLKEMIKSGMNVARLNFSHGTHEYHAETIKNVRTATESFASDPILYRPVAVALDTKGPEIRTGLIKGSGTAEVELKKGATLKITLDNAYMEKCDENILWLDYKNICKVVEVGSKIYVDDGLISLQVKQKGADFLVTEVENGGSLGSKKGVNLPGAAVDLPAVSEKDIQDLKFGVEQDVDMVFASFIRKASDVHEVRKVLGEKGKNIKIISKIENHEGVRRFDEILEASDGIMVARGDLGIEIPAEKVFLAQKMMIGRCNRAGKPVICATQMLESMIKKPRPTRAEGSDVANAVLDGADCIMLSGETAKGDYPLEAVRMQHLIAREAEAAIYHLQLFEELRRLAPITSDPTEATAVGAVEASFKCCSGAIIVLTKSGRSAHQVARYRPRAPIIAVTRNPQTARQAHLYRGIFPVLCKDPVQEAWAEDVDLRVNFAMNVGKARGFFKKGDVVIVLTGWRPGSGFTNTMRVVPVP

SMILES	Rango release inh	Tb PFK block	PKM2 activator	ELG1 DNA repair	Rango-impB inh	Tb PGK inh
Cc1nc2ccn(Cc3ccccc3)c(=O)c2cc1C(=O)N1CCN(c2ccccc2)CC1	i	i	i[0.46 µM]	8.2µM	i	i
CCCn1c(C)cc(C(=O)COc2ccc(S(=O)(=O)N(CC)CC)cc2[N+](=O)[O-])c1C	i	i	i	16.4µM	i	i
CC(=O)Nc1ccc(NC(=O)c2csnn2)cc1	nt	nt	nt	nt	nt	i
CC(C)(C)OC(=O)N1CCC(c2c(C(=O)N3CCC(c4ccccc4)C3)cnn2-c2ccc(Cl)cc2)CC1 (stereo not drawn)	nt	nt	nt	nt	nt	i
Cc1ccc(NC(=O)CSCC(=O)Nc2ccccc2C(=O)NC2CC2)cc1	i	i	nt	i	i	i
NC(=S)NN=C1c2ccccc2-c2c(F)c(F)c(F)c(F)c21	i	nt	nt	nt	73.1µM	i
N#Cc1cccc2c1-c1ccccc1/C2=N/NC(N)=S	i	i	nt	i	i	i
COc1cc(CN(C2CCCCC2C)S(=O)(=O)c2ccc(S(=O)(=O)NC3CC3)cc2)cc(OC)c1OC (stereo not drawn)	i	i	i	18.4µM	?	i
S=C(NNc1ccnc2cc(Cl)ccc12)Nc1ccc(Cl)cc1Cl	i	i	i	20.6µM	i	i
S=C(Nc1ccc(Cl)cc1Cl)Nn1cnnc1	i	i	i	i	i	i
CCOc1ccc(NC(=S)NNc2ccnc3cc(Cl)ccc23)cc1	i	i	i	23.1µM	i	i
S=C(NCc1ccncc1)Nc1ccc(Cl)cc1Cl	i	i	i	16.4µM	i	i
Cc1cc(C)cc(Oc2coc3cc(OCC(=O)NC4CCCCC4)ccc3c2=O)c1	nt	nt	nt	nt	nt	i
COc1ccc(NC(=O)c2c(-c3c(Cl)cccc3Cl)noc2C)c(OC)c1	?	i	i	23.1µM	i	i
COc1ccc(-n2nc(C(=O)NCC(=O)N3CCCCCC3)c3ccccc3c2=O)cc1	i	i	i	i	i	i
COc1ccc(-n2nc(C(=O)NCC(=O)Nc3cccc(Cl)c3)c3ccccc3c2=O)cc1	i	i	i	13µM	i	i
COC(=O)CNC(=O)CNC(=O)c1nn(-c2ccc(OC)c(OC)c2)c(=O)c2ccccc12	i	i	nt	i	i	i
COc1cc(OC)cc(-n2nc(C(=O)N3CC(C)CC(C)C3)c3ccccc3c2=O)c1 (stereo not drawn)	i	i	i	20.6µM	i	i
COc1ccc(-n2nc(C(=O)NCC(=O)N3CC(C)CC(C)C3)c3ccccc3c2=O)cc1 (stereo not drawn)	i	i	i	13µM	i	i
COc1ccc(-n2nc(C(=O)NCC(=O)NCCC3=CCCCC3)c3ccccc3c2=O)cc1OC	i	i	i	9.2µM	i	i
CCOC(=O)N1CCN(C(=O)c2nn(-c3cc(OC)cc(OC)c3)c(=O)c3ccccc23)CC1	nt	i	i	?	nt	nt
CCCCNC(=O)c1ccc(NC(=O)CC2SC(N3CCCC3)=NC2=O)cc1 (stereo not drawn)	i	i	nt	?	i	i
CN(C)CCNC(=O)c1ccc(Cn2c(=O)c3cccn3c3cccnc32)cc1	nt	nt	nt	nt	nt	i
COc1ccc(S(=O)(=O)c2c(N)n(Cc3ccco3)c3nc4ccccc4nc23)cc1	?	i	28.2µM	?	?	i
Cc1ccc(N(Cc2cc3ccc(C)cc3[nH]c2=O)S(C)(=O)=O)c(C)c1	i	i	22.4µM	i	i	i
SMILES	Rango release inh	Tb PFK block	PKM2 activator	ELG1 DNA repair	Rango-impB inh	Tb PGK inh
COc1ccc(-c2nnc3n(CCc4ccccc4)c(=O)c4ccccc4n23)cc1OC	i	i	i	6.51µM	i	i
CCOC(=O)CN(C(=O)CSc1nnc2c(n1)[nH]c1c(C)cc(C)cc12)c1ccccc1	nt	i	i	16.4µM	nt	nt
CCOC(=O)C1CCN(c2cc3c(cc2NC(=O)c2ccc(OC)c(OC)c2)n(C)c(=O)n3C)CC1	i	i	nt	1.64µM	i	i
NNC(=O)c1cc2c(N3CCC(Cc4ccccc4)CC3)ncnc2s1	i	i	i	23.1µM	i	i
Cn1ncc2c(N3CCC(Cc4ccccc4)CC3)ncnc21	i	i	i	?	i	i
Cc1cc(=O)oc2ccc(OCc3ccccc3)cc12	i	i	?	?	i	i
Cc1cc(=O)oc2cc(O)cc(OCc3ccccc3)c12	8.2µM	nt	nt	nt	?	i
CCOC(=O)c1nn(-c2ccc(F)cc2)c2c1CC/C2=C/c1ccccc1	i	i	i	i	i	i
COc1ccccc1-n1cc2c([N+](=O)[O-])cc([N+](=O)[O-])cc2n1	i	i	nt	i	i	i
Cc1ccc([N+](=O)[O-])cc1NC(=O)Nc1cccc(F)c1	i	i	i	16.4µM	i	i
CNS(=O)(=O)c1cc2c3c(cccc3c1)C(=O)NC2=O	i	i	12.6µM	?	i	i
N#Cc1cnn2c(-c3cccc([N+](=O)[O-])c3)ccnc12	i	i	nt	i	i	i
CC(=O)Nc1ccc(NC2=Nc3ccccc3N3C2=Nc2c(c(C)nn2-c2ccccc2)C3c2ccccc2)cc1 (stereo not drawn)	?	i	i	2.82µM	?	i
COc1ccc(NC2=Nc3ccccc3N3C2=Nc2c(c(C)nn2-c2ccc(C)cc2)C3c2cccnc2)cc1 (stereo not drawn)	i	i	i	i	?	i
CCN(Cc1ccncc1)S(=O)(=O)c1ccc(C(C)=O)cc1	i	i	22.4µM	6.51µM	i	i
CCN(CC)S(=O)(=O)c1ccc(C(=O)Nc2ccc(Cc3ccncc3)cc2)cc1	i	i	i	?	i	i
CCOCCn1ccc2c(OCC(=O)NCc3ccc(F)cc3)cccc2c1=O	nt	nt	nt	nt	nt	i
CCOc1cccc(CNc2ccc(O)cc2)c1OCc1ccccc1Cl	i	i	i	18.4µM	i	i
Cc1cc(C)n(CCC(=O)N/N=C/c2c(O)ccc3ccccc23)n1	i	i	i	3.66µM	i	i
O=C(CN1CCCC1)N/N=C/c1c(O)ccc2ccccc12	?	i	i[11.5 µM]	5.17µM	?	i
CCOc1ccc(NC(=O)c2c(NC(=O)c3cccs3)sc3c2CCC(C(C)(C)C)C3)cc1 (stereo not drawn)	nt	nt	nt	nt	nt	i
CCN(CC)c1ncnc2sc3c(c12)CCC3	i	i	i	14.6µM	i	i
COc1ccc(OCC(=O)N2CCN(C(=O)c3cccc(OC)c3)CC2)cc1	nt	nt	nt	nt	nt	i
